Reference: patent US20190345146A1, “NITROGEN CONTAINING BICYCLIC DERIVATIVES FOR TREATING PAIN AND PAIN RELATED CONDITIONS” (ESTEVE PHARMACEUTICALS, S.A., priority 2016, published 2019)

The chains behind the UniProt entries cited, without tags or fusion partners. Where a name states a change or a piece, a line headed by the entry shows the natural chain unless it says otherwise. Residues count along the entry.
UniProt P54289, 25-1103 limits assumed: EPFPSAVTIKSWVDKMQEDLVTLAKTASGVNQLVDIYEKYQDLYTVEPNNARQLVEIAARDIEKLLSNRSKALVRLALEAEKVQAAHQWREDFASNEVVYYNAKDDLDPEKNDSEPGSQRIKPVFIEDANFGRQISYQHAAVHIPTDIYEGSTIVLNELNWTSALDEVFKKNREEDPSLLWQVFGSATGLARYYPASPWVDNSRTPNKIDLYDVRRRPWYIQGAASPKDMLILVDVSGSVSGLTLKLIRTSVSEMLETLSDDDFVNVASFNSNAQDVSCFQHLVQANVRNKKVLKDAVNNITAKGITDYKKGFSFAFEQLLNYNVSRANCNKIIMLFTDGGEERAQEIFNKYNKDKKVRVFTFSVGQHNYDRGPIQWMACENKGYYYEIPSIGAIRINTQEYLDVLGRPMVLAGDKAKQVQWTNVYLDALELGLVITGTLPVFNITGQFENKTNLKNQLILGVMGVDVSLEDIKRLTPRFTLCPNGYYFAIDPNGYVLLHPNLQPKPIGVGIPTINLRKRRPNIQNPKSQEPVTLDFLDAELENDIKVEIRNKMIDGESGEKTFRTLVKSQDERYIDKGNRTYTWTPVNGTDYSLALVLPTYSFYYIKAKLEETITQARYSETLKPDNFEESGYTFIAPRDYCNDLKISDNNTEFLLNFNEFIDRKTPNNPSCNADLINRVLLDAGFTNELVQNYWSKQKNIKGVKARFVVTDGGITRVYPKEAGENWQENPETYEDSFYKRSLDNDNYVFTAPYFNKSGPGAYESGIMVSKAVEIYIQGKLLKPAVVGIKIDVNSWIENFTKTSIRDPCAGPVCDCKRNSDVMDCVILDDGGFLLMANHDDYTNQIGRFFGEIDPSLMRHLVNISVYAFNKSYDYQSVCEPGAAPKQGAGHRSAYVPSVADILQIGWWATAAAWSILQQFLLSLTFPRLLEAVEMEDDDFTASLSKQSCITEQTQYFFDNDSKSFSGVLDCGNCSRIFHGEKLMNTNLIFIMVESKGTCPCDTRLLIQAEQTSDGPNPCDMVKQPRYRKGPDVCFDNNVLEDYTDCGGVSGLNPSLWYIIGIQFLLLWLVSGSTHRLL

Target: human α2δ-1 subunit of Cav2.2 calcium channel (Homo sapiens, UniProt P54289)
Assay: Binding assay to human α2δ-1 subunit of Cav2.2 calcium channel ([3H]-Gabapentin)
Details: read-out: Ki(nM) alpha2delta Hum, Table 1, human α2δ-1 enriched membranes
Method: • Binding assay to human α2δ-1 subunit of Cav2.2 calcium channel.
Human α2δ-1 enriched membranes (2.5 μg) were incubated with 15 nM of radiolabeled [3H]-Gabapentin in assay buffer containing Hepes-KOH 10 mM, pH 7.4.
NSB (non specific binding) was measured by adding 10 μM pregabalin. The binding of the test compound was measured at five different concentrations. After 60 min of incubation at 27° C., the binding reaction was terminated by filtering through Multiscreen GF/C (Millipore) presoaked in 0.5% polyethyleneimine in Vacuum Manifold Station, followed by 3 washes with ice-cold filtration buffer containing 50 mM Tris-HCl, pH 7.4.
Filter plates were dried at 60° C. for 1 h and 30 μl of scintillation cocktail were added to each well before radioactivity reading.
Readings were performed in a Trilux 1450 Microbeta radioactive counter (Perkin Elmer). • Binding assay to human norepinephrine transporter (NET).

Ki [nM]	Compound
> 3000	CNCC[C@H](Oc1cccc2ncn(C)c(=O)c12)c1cccs1
100 to 500	CNCCC(Oc1cccc2ncncc12)c1cccs1 (stereo not drawn)
< 100	CNCC[C@@H](Oc1cccc2ncn(C)c(=O)c12)c1cccs1
